# This is a selection; strong and weak results do not stand in their true shares. Some results for these compounds are left out of this collection, so the calls shown say nothing about other tests. Calls of active or inactive are those of the source. Cut-off read from the data, not from the text of the source: active = inhibition above about 40%; inconclusive = no clear call, values can overlap the other calls; inactive = below that.
# Protein sequences, listed by entry. Tags and fused reporters are not part of them.
# UniProt P10415, whole entry: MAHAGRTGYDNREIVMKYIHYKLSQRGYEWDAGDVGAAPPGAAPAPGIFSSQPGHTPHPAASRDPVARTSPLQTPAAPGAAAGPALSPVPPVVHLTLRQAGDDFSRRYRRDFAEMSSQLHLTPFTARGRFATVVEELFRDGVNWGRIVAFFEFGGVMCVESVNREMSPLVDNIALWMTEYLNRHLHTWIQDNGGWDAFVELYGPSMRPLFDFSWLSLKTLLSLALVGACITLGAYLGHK
# Target: Apoptosis regulator Bcl-2 (Homo sapiens) (UniProt P10415)
# Assay: inhibitors of Bim-Bcl-2 binding, primary screen, biochemical, multiplexed, human Bcl-2 family (AID 950);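 note: 0% = no compound wells with probe peptide and 100% = reference peptide inhibitor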
# Settings: Bead-based flow cytometry, Bim peptide-Bcl-2 binding; at 10 µM; hits give high values
row,SMILES,inhibition
1,CC(C)N1C(=O)CC2(CCN(CCOC(=O)C(O)(c3ccccc3)c3ccccc3)CC2)C1=O,inactive: 2%
2,O=C(NCC1(N2CCCCC2)CCCCC1)c1cc([N+](=O)[O-])ccc1Cl,inactive: -1%
3,CCN1CCCC(OC(=O)C2(O)c3ccccc3C=Cc3ccccc32)C1 (centres undefined),inactive: 1%
4,C=CCN1CCN(CCOC(=O)C(O)(c2ccccc2)c2ccccc2)CC1,inactive: 0%
5,CN(C)C1CCCC1OC(=O)C(O)(c1ccccc1)c1ccccc1 (centres undefined),inactive: -7%
6,Cc1ccccc1C(=O)NCC1(N2CCCCC2)CCCCC1,inactive: -1%
7,COc1cccc(C(=O)NCC2(N3CCCCC3)CCCCC2)c1,inactive: 0%
8,CN(C)c1cccc(C(=O)NCC2(N(C)C)CCCCC2)c1,inactive: -7%
9,O=C(OC1CN2CCC1CC2)C(CO)(c1ccccc1)c1ccccc1 (centres undefined),inactive: -12%

# From PubChem BioAssay AID950 (NMMLSC, 2007)
